ChEMBL document CHEMBL4627399, “Synthesis and Structure-Activity Relationships of 5'-Aryl-14-alkoxypyridomorphinans: Identification of a μ Opioid Receptor Agonist/δ Opioid Receptor Antagonist Ligand with Systemic Antinociceptive Activity and Diminished Opioid Side Effects” (J Med Chem, 2020)

Tested on: Mus musculus
Assay: Antinociceptive activity in CD-1 mouse assessed as total time above 30% maximum possible effect of antinociception at 10 nmol, icv measured up to 5 hrs post dose by warm water tail-flick assay

COc1ccc(-c2cnc3c(c2)C[C@@]2(OCCCc4ccccc4)[C@H]4Cc5ccc(O)c6c5[C@@]2(CCN4CC2CC2)[C@H]3O6)cc1
Time: 15 to 300 min
